Measurements from ChEMBL document CHEMBL1142299, “Coumarin as attractive casein kinase 2 (CK2) inhibitor scaffold: an integrate approach to elucidate the putative binding motif and explain structure-activity relationships” (J Med Chem, 2008).

Assay: Inhibition of CK2 in rat liver
Outline: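 Native CK2 purified from rat liver. Started with kinase, stopped at 10 min with orthophosphoric acid. Read by phosphocellulose filter binding and counting. Three independent experiments, values averaged.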

Cc1c([N+](=O)[O-])c(=O)oc2c([N+](=O)[O-])c(O)c([N+](=O)[O-])cc12
IC50: > 100 µM
